Protein sequences, listed by entry. Tags and fused reporters are not part of them. Chains listed by the source or under a name are the forms on record and can include a tag or linker. Residues count along the entry.
UniProt O00255, 1-610 with tags or gaps T541A: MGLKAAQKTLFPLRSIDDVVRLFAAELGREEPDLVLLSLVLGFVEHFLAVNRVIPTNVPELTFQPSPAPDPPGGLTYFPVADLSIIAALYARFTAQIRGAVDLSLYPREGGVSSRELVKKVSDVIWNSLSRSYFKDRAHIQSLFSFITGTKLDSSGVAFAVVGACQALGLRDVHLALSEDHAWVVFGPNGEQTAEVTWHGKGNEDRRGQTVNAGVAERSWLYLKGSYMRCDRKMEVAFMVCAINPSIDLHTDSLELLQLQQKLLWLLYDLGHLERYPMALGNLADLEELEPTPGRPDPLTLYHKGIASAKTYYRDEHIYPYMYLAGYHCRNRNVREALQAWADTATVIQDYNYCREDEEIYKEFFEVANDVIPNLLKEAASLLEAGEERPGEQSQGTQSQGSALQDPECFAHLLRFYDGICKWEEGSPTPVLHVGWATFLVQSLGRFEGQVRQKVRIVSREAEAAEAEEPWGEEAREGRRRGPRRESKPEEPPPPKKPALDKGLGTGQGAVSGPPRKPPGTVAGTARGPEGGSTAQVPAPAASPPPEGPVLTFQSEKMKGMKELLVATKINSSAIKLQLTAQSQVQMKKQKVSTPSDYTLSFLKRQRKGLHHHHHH

According to patent US20230250096A1, “SUBSTITUTED PHENYL-1H-PYRROLO[2,3-c] PYRIDINE DERIVATIVES” (Janssen Pharmaceutica NV, priority 2021, published 2023):

Key:
[1] = biological target: menin/MLL (terbium chelate-labeled menin, FITC-MBM1 peptide) (Homo sapiens, UniProt O00255, T541A); test: Menin/MLL homogenous time-resolved fluorescence (HTRF) assay; conditions: read-out: HTRF-30 min incubation IC50
Protocol: 1) Menin/MLL Homogenous Time-Resolved Fluorescence (HTRF) Assay
To an untreated, white 384-well microtiter plate was added 40 nL 200× test compound in DMSO and 4 μL 2× terbium chelate-labeled menin (vide infra for preparation) in assay buffer (40 mM Tris HCl, pH 7.5, 50 mM NaCl. 1 mM DTT (dithiothreitol) and 0.05% Pluronic F-127). After incubation of test compound and terbium chelate-labeled menin for 30 min at ambient temperature, 4 μL 2×FITC-MBM1 peptide (FITC-β-alanine-SARWRFPARPGT-NH2) (“FITC” means fluorescein isothiocyanate) in assay buffer was added, the microtiter plate centrifuged at 1000 rpm for 1 min and the assay mixtures incubated for 15 min at ambient temperature. The relative amount of menin FITC-MBM1 complex present in an assay mixture is determined by measuring the homogenous time-resolved fluorescence (HTRF) of the terbium/FITC donor/acceptor fluorphore pair using an EnVision microplate reader (ex. 337 nm/terbium em. 490 nm/FITC em. 520 nm) at ambient temperature. The degree of fluorescence resonance energy transfer (the HTRF value) is expressed as the ratio of the fluorescence emission intensities of the FITC and terbium fluorophores (F^em520 nm/F^em490 nm). The final concentrations of reagents in the binding assay are […] terbium chelate-labeled menin, 75 nM FITC-MBM1 peptide and 0.5% DMSO in assay buffer. Dose-response titrations of test compounds are conducted using an 11 point, four-fold serial dilution scheme, starting typically at 10 μM.
Compound potencies were determined by first calculating % inhibition at each compound concentration according to equation 1:
% inhibition=((HC−LC)−(HTRF^compound−LC))/(HC−LC))*100 (Eqn 1)
Where LC and HC are the HTRF values of the assay in the presence or absence of a saturating concentration of a compound that competes with FITC-MBM1 for binding to menin, and HTRF^compound is the measured HTRF value in the presence of the test compound. HC and LC HTRF values represent an average of at least 10 replicates per plate.
% inhibition=Bottom+(Top−Bottom)/(1+10^((log/C50−log[cmpd])*h)) (Eqn 2)
Where Bottom and Top are the lower and upper asymptotes of the dose-response curve, respectively, IC50 is the concentration of compound that yields 50% inhibition of signal and h is the Hill coefficient.
Preparation of Terbium cryptate labeling of Menin: Menin (a.a 1-610-6xhis tag, 2.3 mg/mL in 20 mM Hepes (2-[4-(2-Hydroxyethyl)-1-piperazinyl]ethane sulfonic acid), 80 mM NaCl, 5 mM DTT (Dithiothreitol), pH 7.5) was labeled with terbium cryptate as follows. 200 μg of Menin was buffer exchanged into 1×Hepes buffer. 6.67 μM Menin was incubated with 8-fold molar excess NHS (N-hydroxysuccinimide)-terbium cryptate for 40 minutes at room temperature. Half of the labeled protein was purified away from free label by running the reaction over a NAP5 column with elution buffer (0.1M Hepes, pH 7+0.1% BSA (bovine serum albumin)). The other half was eluted with 0.1 M phosphate buffered saline (PBS), pH7. 400 μl of eluent was collected for each, aliquoted and frozen at −80° C. The final concentration of terbium-labeled Menin protein was 115 μg/mL in Hepes buffer and 85 μg/mL in PBS buffer, respectively.

MEIS1 mRNA expression = MEIS1 mRNA expression assay (Quantigene Singleplex) in MOLM14 cells; conditions: read-out: MEIS1 IC50, 48 hours incubation
Protocol: 2b) MEIS1 mRNA Expression Assay
MEIS1 mRNA expression upon treatment of compound was examined by Quantigene Singleplex assay (Thermo Fisher Scientific). This technology allows for direct quantification of mRNA targets using probes hybridizing to defined target sequences of interest and the signal is detected using a Multimode plate reader Envision (PerkinElmer). The MOLM14 cell line was used for this experiment. Cells were plated in 96-well plates at 3,750 cells/well in the presence of increasing concentrations of compounds. After incubation of 48 hours with compounds, cells were lysed in lysis buffer and incubated for 45 minutes at 55° C. Cell lysates were mixed with human MEIS specific capture probe or human RPL28 (Ribosomal Protein L28) specific probe as a normalization control, as well as blocking probes. Cell lysates were then transferred to the custom assay hybridization plate (Thermo Fisher Scientific) and incubated for 18 to 22 hours at 55° C. Subsequently, plates were washed to remove unbound materials followed by sequential addition of preamplifiers, amplifiers, and label probe. Signals (═gene counts) were measured with a Multimode plate reader Envision. IC50S were calculated by dose-response modelling using appropriate software. For all non-housekeeper genes response equal counts corrected for background and relative expression. For each sample, each test gene signal (background subtracted) was divided by the normalization gene signal (RPL28: background subtracted). Fold changes were calculated by dividing the normalized values for the treated samples by the normalized values for the DMSO treated sample. Fold changes of each target gene were used for the calculation of IC50S.

OCI-AML3 cells = test: Proliferation assay (spheroid confluence, 8 days), OCI-AML3; conditions: read-out: spheroid assay_OCI-AML3 IC50
Protocol: (§1) The anti-proliferative effect of menin/MLL protein/protein interaction inhibitor test compounds was assessed in human leukemia cell lines. The cell line MOLM14 harbors a MLL translocation and expresses the MLL fusion protein MLL-AF9, respectively, as well as the wildtype protein from the second allele. OCI-AML3 cells that carry the NPM1c gene mutation were also tested. […] KO-52 was used as a control cell line containing two MLL (KMT2A) wildtype alleles in order to exclude compounds that display general cytotoxic effects.
MOLM14 cells were cultured in RPMI-1640 (Sigma Aldrich) supplemented with 10% heat-inactivated fetal bovine serum (HyClone), 2 mM L-glutamine (Sigma Aldrich) and 50 μg/ml gentamycin (Gibco). […]
In order to assess the anti-proliferative effects, 200 MOLM14 cells, 200 OCI-AML3 cells or 300 KO-52 cells were seeded in 200 μl media per well in 96-well round bottom, ultra-low attachment plates (Costar, catalogue number 7007). […] Spheroid like growth was measured in real-time by live-cell imaging (IncuCyteZOOM, Essenbio, 4×objective) acquiring images at day 8. Confluence (%) as a measure of spheroid size was determined using an integrated analysis tool.
In order to determine the effect of the test compounds over time, the confluence in each well as a measure of spheroid size, was calculated. […]
Absolute IC50 values were calculated as percent change in confluence as follows: […]

KO-52 cells = test: Proliferation assay (spheroid confluence, 8 days), KO-52 control cell line; conditions: read-out: spheroid assay_KO-52 IC50
Protocol: as §1
(§2) MOLM14 cells were cultured in RPMI-1640 (Sigma Aldrich) supplemented with 10% heat-inactivated fetal bovine serum (HyClone), 2 mM L-glutamine (Sigma Aldrich) and 50 μg/ml gentamycin (Gibco). KO-52 and OCI-AML3 cell lines were propagated in alpha-MEM (Sigma Aldrich) supplemented with 20% heat-inactivated fetal bovine serum (HyClone), 2 mM L-glutamine (Sigma Aldrich) and 50 μg/ml gentamycin (Gibco).
(§3) In order to assess the anti-proliferative effects, 200 MOLM14 cells, 200 OCI-AML3 cells or 300 KO-52 cells were seeded in 200 μl media per well in 96-well round bottom, ultra-low attachment plates (Costar, catalogue number 7007). Cell seeding numbers were chosen based on growth curves to ensure linear growth throughout the experiment. Test compounds were added at different concentrations and the DMSO content was normalized to 0.3%. Cells were incubated for 8 days at 37° C. and 5% CO2. Spheroid like growth was measured in real-time by live-cell imaging (IncuCyteZOOM, Essenbio, 4×objective) acquiring images at day 8. Confluence (%) as a measure of spheroid size was determined using an integrated analysis tool.
(§4) In order to determine the effect of the test compounds over time, the confluence in each well as a measure of spheroid size, was calculated. Confluence of the highest dose of a reference compound was used as baseline for the LC (Low control) and the confluence of DMSO treated cells was used as 0% cytotoxicity (High Control, HC).
(§5) Absolute IC50 values were calculated as percent change in confluence as follows:
(§6) LC=Low Control: cells treated with e.g. 1 μM of the cytotoxic agent staurosporin, or e.g. cells treated with a high concentration of an alternative reference compound
(§7) HC=High Control: Mean confluence (%) (DMSO treated cells)
(§8) % Effect=100−(100*(Sample−LC)/(HC−LC))
(§9) GraphPad Prism (version 7.00) was used to calculate the IC50. Dose-response equation was used for the plot of % Effect vs Log10 compound concentration with a variable slope and fixing the maximum to 100% and the minimum to 0%.

MOLM14 cells = test: Proliferation assay (spheroid confluence, 8 days), MOLM14; conditions: read-out: spheroid assay_MOLM14 IC50
Protocol: as §1, §2, §3, §4, §5, §6, §7, §8, §9

| Compound | IC50 [1] | IC50 (MEIS1 mRNA expression) | IC50 (OCI-AML3 cells) | IC50 (KO-52 cells) | IC50 (MOLM14 cells) |
| --- | --- | --- | --- | --- | --- |
| CC(=O)N1CCC(CN2CC[C@@H](Cc3cn(-c4ccc(F)cc4C(=O)N4CCC(O)C4(C)C)c4cncc(C)c34)C2)CC1 (single isomer, unassigned) [Compound 313b] | 0.713 nM | 713 nM |  |  |  |
| CC(=O)N1CC(C)C(N2CC(Cc3cn(-c4ccc(F)cc4C(=O)N(C)C(C)C)c4cncc(C)c34)C2)C(C)C1 (centres unmarked) | 0.151 nM | 281 nM |  |  |  |
| Cc1cncc2c1c(C[C@@H]1CCN(CC3CCCOC3)C1)cn2-c1ccc(F)cc1C(=O)N(C)C(C)C (single isomer, unassigned) [Compound 138] | 0.067 nM | 47 nM |  |  |  |
| Cc1cncc2c1c(C[C@@H]1CCN(CC3CCCOC3)C1)cn2-c1ccc(F)cc1C(=O)N(C)C(C)C (single isomer, unassigned) [Compound 138a] | 0.054 nM | 44 nM | 72 nM | 1700 nM | 32 nM |
| CC(=O)N1CCC(CN2CC[C@@H](Cc3cn(-c4ccc(F)cc4C(=O)N4C[C@H](O)C[C@H]4C)c4cncc(C)c34)C2)CC1 | 0.267 nM | 642 nM |  |  | 553 nM |
| CC(=O)N1CCC(CN2CC[C@@H](Cc3cn(-c4ccc(F)cc4C(=O)N4CCC(O)C4(C)C)c4cncc(C)c34)C2)CC1 (single isomer, unassigned) [Compound 313a] | 0.111 nM | 299 nM |  |  |  |
| CC(=O)N1C[C@@H]2CN([C@H]3C[C@@H](C(C)N4CC[C@@H](Cc5cn(-c6ccc(F)cc6C(=O)N(C)C(C)C)c6cncc(C)c56)C4)C3)C[C@H]2C1 (single isomer, unassigned) | 0.042 nM | 162 nM |  |  |  |
| Cc1cncc2c1c(CC1CN(CC3CCOCC3)C1)cn2-c1ccc(F)cc1C(=O)N1C[C@H](O)C[C@H]1C | 0.311 nM | 177 nM |  |  |  |
| Cc1cncc2c1c(C[C@@H]1CCN(CC3CCCOC3)C1)cn2-c1ccc(F)cc1C(=O)N(C)C(C)C (single isomer, unassigned) [Compound 138b] | 0.109 nM | 258 nM | 222 nM | 3700 nM | 86 nM |
| CCN(C(=O)c1cc(F)ccc1-n1cc(CC2CN(C(C(C)C)[C@H]3C[C@H](N4CCC(S(C)(=O)=O)CC4)C3)C2)c2c(C)cncc21)C(C)C (some centres unmarked) | 0.052 nM | 19 nM |  | 500 nM | 3 nM |
| CC(=O)N1CCC([C@@H](CO)N2CC[C@@H](Cc3cn(-c4ccc(F)cc4C(=O)N(C)C(C)C)c4cncc(C)c34)C2)CC1 | 0.387 nM | 524 nM |  | > 15000 nM | 148 nM |
| CCN(C(=O)c1cc(F)ccc1-n1cc(CC2CN(C(C(C)C)[C@H]3C[C@@H](N4CCC(S(C)(=O)=O)CC4)C3)C2)c2c(C)cncc21)C(C)C (some centres unmarked) | 0.03 nM | 16 nM |  | 600 nM |  |
| Cc1cncc2c1c(CC1CN([C@@H](C(C)C)[C@H]3C[C@@H](N4CCC(S(C)(=O)=O)CC4)C3)C1)cn2-c1ccc(F)cc1C(=O)N(C)C(C)C (single isomer, unassigned) | 0.072 nM | 420 nM |  |  |  |
